Reference: ChEMBL document CHEMBL1155538 (Bioorg Med Chem Lett, 2010)

Chains of the proteins cited; added tags and fusions are not shown.
UniProt Q12809, whole entry: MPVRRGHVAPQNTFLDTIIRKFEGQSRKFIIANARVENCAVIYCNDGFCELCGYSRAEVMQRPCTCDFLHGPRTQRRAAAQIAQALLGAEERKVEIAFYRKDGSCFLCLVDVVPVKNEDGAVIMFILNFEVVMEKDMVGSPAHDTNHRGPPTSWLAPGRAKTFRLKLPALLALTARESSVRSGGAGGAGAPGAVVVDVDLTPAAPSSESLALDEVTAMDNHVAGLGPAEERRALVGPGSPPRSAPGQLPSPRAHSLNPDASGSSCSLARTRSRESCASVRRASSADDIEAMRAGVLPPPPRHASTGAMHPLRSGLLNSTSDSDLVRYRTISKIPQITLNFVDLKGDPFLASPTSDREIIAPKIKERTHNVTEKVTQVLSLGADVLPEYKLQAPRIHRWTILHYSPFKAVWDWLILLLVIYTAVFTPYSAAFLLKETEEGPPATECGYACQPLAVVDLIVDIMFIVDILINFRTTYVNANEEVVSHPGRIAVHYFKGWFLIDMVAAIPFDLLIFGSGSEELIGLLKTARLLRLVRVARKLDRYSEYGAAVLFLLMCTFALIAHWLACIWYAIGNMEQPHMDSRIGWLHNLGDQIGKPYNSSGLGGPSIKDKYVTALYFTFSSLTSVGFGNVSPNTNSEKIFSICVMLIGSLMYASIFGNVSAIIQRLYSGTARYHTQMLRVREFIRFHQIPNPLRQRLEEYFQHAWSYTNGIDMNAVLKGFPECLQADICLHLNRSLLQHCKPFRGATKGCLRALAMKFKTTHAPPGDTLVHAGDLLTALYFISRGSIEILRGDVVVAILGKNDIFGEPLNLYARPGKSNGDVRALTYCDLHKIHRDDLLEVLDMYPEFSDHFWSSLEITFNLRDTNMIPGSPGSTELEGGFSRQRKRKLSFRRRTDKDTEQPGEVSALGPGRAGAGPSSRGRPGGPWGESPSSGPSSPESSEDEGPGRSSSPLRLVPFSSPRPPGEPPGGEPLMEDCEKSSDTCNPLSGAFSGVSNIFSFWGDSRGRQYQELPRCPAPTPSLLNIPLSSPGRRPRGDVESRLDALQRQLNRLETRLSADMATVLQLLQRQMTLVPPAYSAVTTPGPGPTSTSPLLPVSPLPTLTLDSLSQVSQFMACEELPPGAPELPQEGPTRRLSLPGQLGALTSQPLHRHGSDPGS
UniProt P10635, whole entry: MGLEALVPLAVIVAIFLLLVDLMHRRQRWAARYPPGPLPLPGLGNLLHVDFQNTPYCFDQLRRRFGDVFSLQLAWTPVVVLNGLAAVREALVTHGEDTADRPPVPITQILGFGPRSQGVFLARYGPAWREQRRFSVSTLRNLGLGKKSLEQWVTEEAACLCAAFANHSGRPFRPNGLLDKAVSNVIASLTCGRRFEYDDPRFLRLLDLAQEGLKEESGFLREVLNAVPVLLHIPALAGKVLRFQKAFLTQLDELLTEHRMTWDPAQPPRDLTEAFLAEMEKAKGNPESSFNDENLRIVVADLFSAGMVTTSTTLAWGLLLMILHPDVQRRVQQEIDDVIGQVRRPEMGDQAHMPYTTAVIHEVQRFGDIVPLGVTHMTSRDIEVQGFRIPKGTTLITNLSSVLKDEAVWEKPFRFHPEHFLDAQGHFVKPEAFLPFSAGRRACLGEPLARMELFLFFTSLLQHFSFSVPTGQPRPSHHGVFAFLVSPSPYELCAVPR
UniProt P34969, whole entry: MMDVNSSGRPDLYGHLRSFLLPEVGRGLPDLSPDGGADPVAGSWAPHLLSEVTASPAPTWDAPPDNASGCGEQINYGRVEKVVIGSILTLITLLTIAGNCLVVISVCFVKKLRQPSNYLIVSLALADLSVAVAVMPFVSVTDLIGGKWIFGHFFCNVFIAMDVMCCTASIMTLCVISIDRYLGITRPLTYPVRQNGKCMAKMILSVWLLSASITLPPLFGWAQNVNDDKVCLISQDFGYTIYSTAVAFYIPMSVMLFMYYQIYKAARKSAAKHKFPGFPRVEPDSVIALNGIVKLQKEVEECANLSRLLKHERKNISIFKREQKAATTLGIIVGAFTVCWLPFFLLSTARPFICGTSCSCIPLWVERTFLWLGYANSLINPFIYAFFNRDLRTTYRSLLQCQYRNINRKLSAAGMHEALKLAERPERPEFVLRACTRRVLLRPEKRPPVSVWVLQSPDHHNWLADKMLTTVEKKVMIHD

What was measured:
Liver microsomes [1] = assay: Half life in human liver microsomes; type: ADME, Microsome
[2] = Inhibition of tetrodotoxin-sensitive sodium channel
[3] = target: Voltage-gated inwardly rectifying potassium channel KCNH2 (Homo sapiens, UniProt Q12809); assay: Displacement of [3H]dofetilide from human ERG
Cytochrome P450 2D6 = Cytochrome P450 2D6 (Homo sapiens, UniProt P10635); assay: Inhibition of CYP2D6; type: ADME
Plasma = assay: Protein binding in dog plasma
Hepatocyte = assay: Half life in human hepatocytes; conditions: Liver
[4] = Half life in dog liver microsomes
[5] = Binding affinity to sodium channel site 2
[6] = Dissociation constant, pKa of the compound
[7] = Binding affinity to L-type calcium channel DHP binding site
[8] = Binding affinity to L-type calcium channel verapamil binding site
Liver microsomes [9] = assay: Half life in human liver microsomes in presence of recombinant CYP2D6
Liver microsomes [10] = assay: Half life in human liver microsomes in presence of recombinant CYP3A4
Liver microsomes [11] = assay: Half life in human liver microsomes in presence of recombinant CYP2C19
Caco-2 [12] = assay: Apparent permeability from apical to basolateral side of human Caco-2 cells
Caco-2 [13] = assay: Apparent permeability from basolateral to apical side of human Caco-2 cells
Liver microsomes [14] = assay: Metabolic stability in human liver microsomes in presence of recombinant CYP2D6
Liver microsomes [15] = assay: Metabolic stability in human liver microsomes in presence of recombinant CYP3A4
Liver microsomes [16] = assay: Metabolic stability in human liver microsomes in presence of recombinant CYP2C19
[17] = Lipophilicity, log D at pH 7.4; conditions: buffer
[18] = target: 5-hydroxytryptamine receptor 7 (Homo sapiens, UniProt P34969); assay: Binding affinity to 5HT7 receptor
[19] = Binding affinity to sigma receptor
Canis familiaris [20] = assay: Elimination half life in dog at 0.0075 mg/kg, iv; conditions: in vivo
Canis familiaris [21] = assay: Volume of distribution in dog at 0.0075 mg/kg, iv; conditions: in vivo

SMILES	t1/2 (Liver microsomes [1])	IC50 [2]	IC50 [3]	IC50 (Cytochrome P450 2D6)	also measured
Fc1ccc(C(Cc2ccccc2OC(F)F)N2CCNCC2)cc1 (centres undefined)	1.53 h	3.66 µM	9.12 µM		
Fc1cccc(C(Cc2ccccc2OC(F)(F)F)N2CCNCC2)c1 (centres undefined)	> 2 h	3.99 µM			
COc1ccccc1CC(c1ccc(F)cc1)N1CCNCC1 (centres undefined)	> 2 h	4.83 µM	16 µM	12.1 µM	
Fc1ccccc1C(Cc1ccccc1OC(F)(F)F)N1CCNCC1 (centres undefined)	> 2 h and 1.82 h	3.27 µM and 1.41 µM			
Fc1cccc(C(Cc2ccccc2OC(F)F)N2CCNCC2)c1 (centres undefined)	1.95 h	15.2 µM	8.24 µM		
COc1c(F)cccc1CC(c1ccccc1)N1CCNCC1 (centres undefined)	> 2 h	3.81 µM	20.8 µM	> 30 µM	
CCCOc1ccccc1CC(c1ccccc1)N1CCNCC1 (centres undefined)	0.767 h		5.84 µM		
CCOc1ccccc1C[C@H](c1ccccc1)N1CCNCC1	1.17 h	0.79 µM	6.95 µM		PPB (Plasma): 90%; t1/2 (Hepatocyte): 1.33 h; t1/2 [4]: 0.0667 h; IC50 [5]: 0.45 µM; pKa [6]: 4; IC50 [7]: > 10 µM; IC50 [8]: 5.01 µM; t1/2 (Liver microsomes [9]): 2 min; t1/2 (Liver microsomes [10]): 0.333 h; t1/2 (Liver microsomes [11]): 1 h; Papp (Caco-2 [12]): 33 ×10⁻⁶ cm/s; Papp (Caco-2 [13]): 36 ×10⁻⁶ cm/s; Stability (Liver microsomes [14]): 44%; Stability (Liver microsomes [15]): 29%; Stability (Liver microsomes [16]): 21%
COc1ccccc1CC(c1ccccc1F)N1CCNCC1 (centres undefined)	> 2 h	3.84 µM	40.1 µM	17.7 µM	
COc1ccccc1CC(c1ccccc1)N1CCNCC1 (centres undefined)	> 2 h	8.74 µM and 4.47 µM and 5.4 µM			logD [17]: 1; t1/2 (Hepatocyte): 2.12 h; Ki [18]: 0.84 µM; t1/2 [4]: 0.1 h; Ki [19]: 0.29 µM; IC50 [5]: 2.2 µM; IC50 [7]: > 10 µM; IC50 [8]: 5.9 µM
c1ccc(C(Cc2ccccc2OCC2CC2)N2CCNCC2)cc1 (centres undefined)	1.4 h				
Fc1ccccc1C(Cc1ccccc1OC(F)F)N1CCNCC1 (centres undefined)	1.52 h	3.37 µM			
Oc1ccccc1C[C@H](c1ccccc1)N1CCNCC1		11.5 µM	> 10 µM	> 30 µM	
CC(C)Oc1ccccc1CC(c1ccccc1)N1CCNCC1 (centres undefined)	0.767 h		6.37 µM		
Fc1ccc(C(Cc2ccccc2OC(F)(F)F)N2CCNCC2)cc1 (centres undefined)	> 2 h and 1.35 h	3.14 µM and 2.96 µM and 1.42 µM	8.05 µM and 9.64 µM and 4.95 µM	1.4 µM and 3.6 µM	PPB (Plasma): 96.5%; t1/2 [4]: 0.283 h; beta t1/2 (Canis familiaris [20]): 6 h; Vd (Canis familiaris [21]): 7 L/kg
FC(F)(F)Oc1ccccc1CC(c1ccccc1)N1CCNCC1 (centres undefined)	1.82 h	2.1 µM	10.9 µM	3.6 µM	
COc1ccccc1CC(c1cccc(F)c1)N1CCNCC1 (centres undefined)	> 2 h	4.54 µM	> 22.5 µM		
FC(F)Oc1ccccc1CC(c1ccccc1)N1CCNCC1 (centres undefined)		4.7 µM and 2.97 µM and 4.89 µM	10.7 µM and 12.7 µM and 15.3 µM	30 µM and 3 µM and 4.9 µM	t1/2 [4]: 1.05 h

“And” between values parts separate entries of the source, which are not always exact repeats. Equal values may be shown once. Only a part of the results on these compounds is given; other tests are left out.
